Test results from ChEMBL document CHEMBL1123334, “4-Amino-6-chloro-2-piperazinopyrimidines with selective affinity for alpha 2-adrenoceptors” (J Med Chem, 1986).

By UniProt entry, the sequences of proteins in these tests, tags left out. Where a name states a change or a piece, a line headed by the entry shows the natural chain unless it says otherwise.
UniProt P15823: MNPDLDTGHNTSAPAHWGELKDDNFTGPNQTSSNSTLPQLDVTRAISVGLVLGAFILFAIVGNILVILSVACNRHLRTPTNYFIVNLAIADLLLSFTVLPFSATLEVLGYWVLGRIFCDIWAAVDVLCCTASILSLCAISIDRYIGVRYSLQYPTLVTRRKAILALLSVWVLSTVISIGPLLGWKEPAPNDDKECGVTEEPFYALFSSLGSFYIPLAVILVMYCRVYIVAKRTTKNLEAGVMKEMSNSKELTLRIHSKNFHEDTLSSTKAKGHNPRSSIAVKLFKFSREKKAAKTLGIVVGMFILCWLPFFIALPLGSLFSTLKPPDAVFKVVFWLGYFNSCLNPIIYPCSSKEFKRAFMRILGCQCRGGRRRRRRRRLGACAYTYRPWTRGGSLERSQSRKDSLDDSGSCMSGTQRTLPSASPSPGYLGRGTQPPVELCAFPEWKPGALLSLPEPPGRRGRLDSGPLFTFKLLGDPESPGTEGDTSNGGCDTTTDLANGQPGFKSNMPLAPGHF
UniProt P23944: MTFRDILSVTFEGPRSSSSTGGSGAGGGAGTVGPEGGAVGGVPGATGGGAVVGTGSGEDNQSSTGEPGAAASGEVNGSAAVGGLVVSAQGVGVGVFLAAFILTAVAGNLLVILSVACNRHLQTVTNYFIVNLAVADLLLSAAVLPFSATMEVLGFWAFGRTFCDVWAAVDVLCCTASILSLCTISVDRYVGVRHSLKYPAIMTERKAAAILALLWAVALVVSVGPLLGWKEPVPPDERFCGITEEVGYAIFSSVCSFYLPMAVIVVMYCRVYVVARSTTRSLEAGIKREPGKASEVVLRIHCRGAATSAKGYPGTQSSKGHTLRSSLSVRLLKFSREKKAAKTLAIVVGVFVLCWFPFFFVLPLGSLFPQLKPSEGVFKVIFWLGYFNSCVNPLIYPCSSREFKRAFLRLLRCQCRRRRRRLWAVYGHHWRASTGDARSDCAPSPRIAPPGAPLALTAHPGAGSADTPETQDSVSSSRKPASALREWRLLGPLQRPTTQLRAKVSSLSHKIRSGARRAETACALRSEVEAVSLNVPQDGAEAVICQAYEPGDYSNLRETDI
UniProt P43140: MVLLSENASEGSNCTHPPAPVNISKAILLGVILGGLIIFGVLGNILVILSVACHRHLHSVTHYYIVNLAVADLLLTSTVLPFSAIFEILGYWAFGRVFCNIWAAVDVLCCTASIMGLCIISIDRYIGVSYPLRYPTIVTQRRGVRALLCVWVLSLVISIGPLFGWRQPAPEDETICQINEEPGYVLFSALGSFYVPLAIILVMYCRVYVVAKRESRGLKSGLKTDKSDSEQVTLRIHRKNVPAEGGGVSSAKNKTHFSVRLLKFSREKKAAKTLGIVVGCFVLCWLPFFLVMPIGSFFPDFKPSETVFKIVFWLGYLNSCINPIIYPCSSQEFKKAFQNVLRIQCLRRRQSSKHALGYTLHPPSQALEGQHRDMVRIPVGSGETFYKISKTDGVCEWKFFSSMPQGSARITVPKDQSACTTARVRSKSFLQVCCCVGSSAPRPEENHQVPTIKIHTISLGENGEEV

Target: Adrenergic receptor alpha-1 (Rattus norvegicus, UniProt P15823+P23944+P43140)
Assay: In vitro binding affinity was measured as the inhibition of [3H]WB-4101 binding to alpha-1 adrenergic receptor of rat cortical membranes
Type: cell membranes, Membrane

Ki: 310 nM
Structure (SMILES): Clc1cccc(Cl)c1NC1=NCCN1 [CLONIDINE]
